Molecular target: T1, α4β2 nAChRs expressed in Xenopus laevis oocytes (Rattus norvegicus, UniProt P09483+P12390)
T1 construct: expressed in transfected cells; host or cells: Xenopus laevis oocytes (stage V and VI), injected with in vitro transcribed α4 and β2 mRNA
Assay: Efficacy of agonist A-85380 versus ACh for subunit stoichiometry determination
Format: cell-based
Conditions: A-85380 100 nM vs ACh 300 μM
Method: To determine whether the α4β2 mutations α4S469Aβ2, α4S471Dβ2, α4T536Aβ2 and α4Y576Aβ2 expressed in Xenopus laevis oocytes assemble in the α4(2):β2(3) or the α4(3):β2(2) stoichiometry, we estimated the efficacy of agonist A-85380 when compared to ACh 300 μM. […] The efficacy of A-85380 in WTα4(2):β2(3) and […] was determined by comparing the macroscopic current elicited by A-85380 100 nM and ACh 300 μM in oocytes microinjected α4β2 mRNA in 1:10 and 10:1 ratios, respectively. The efficacy of A-85380 in α4S469Aβ2, α4S471Dβ2, α4T536Aβ2 and α4Y576Aβ2 was determined by comparing the macroscopic current elicited by A-85380 100 nM and ACh 300 μM in oocytes microinjected α4β2 mRNA in 2:3 ratio. The changes in stoichiometry in these four mutants were assessed by comparing the efficacy of A-85380 in each mutant compared to WTα4(2):β2(3) and WTα4(3):β2(2).

## WT α4β2: wild-type rat α4β2 neuronal nicotinic acetylcholine receptor expressed in Xenopus laevis oocytes [reference compound]
α4β2 mRNA 2:3
  efficacy of A-85380, 2:3 ratio compared with 1:10 ratio: no significant difference
α4β2 mRNA 10:1
  efficacy of A-85380, 10:1 ratio compared with 1:10 ratio: significantly lower
